This is an account of results in ChEMBL document CHEMBL1155536, “Synthesis and evaluation of azabicyclo[3.2.1]octane derivatives as potent mixed vasopressin antagonists” (Bioorg Med Chem Lett, 2010).

The species entered for data set [1] is Homo sapiens. Description: Selectivity ratio of Ki for human Vasopressin V1a receptor to Ki for human Vasopressin V2 receptor.
Data set [2] can be described thus: Half life in human liver microsome at 1 uM. The conditions noted are these: liver microsomes. In general terms: Microsomes from liver hold many membrane-bound enzymes, among them those of drug oxidation.
Data set [3] is filed under the species Homo sapiens. Description: Selectivity ratio of IC50 for human Vasopressin V1a receptor to IC50 for human Vasopressin V2 receptor.

Bounds are passed on as bounds.

For `COc1cc(C(=O)N2C[C@]3(C)C[C@H]2CC(C)(C)C3)ccc1-c1csc2ccccc12`, the Ratio Ki in data set [1] was 0.05. In data set [2], this compound returned a half-life at 1 µM of less than 1 min. In addition, the Ratio IC50 in data set [3] amounted to 0.05.

A word on the half-life: it is the time in which the quantity being followed falls by half.
